Assay results taken from BindingDB's records for doi:10.1016/j.bmc.2012.01.022 (Florida A&M University, 2012).

By UniProt entry, the sequences of proteins in these tests, tags left out. Chains listed by the source or under a name are the forms on record and can include a tag or linker.
UniProt P35462, as listed by the source: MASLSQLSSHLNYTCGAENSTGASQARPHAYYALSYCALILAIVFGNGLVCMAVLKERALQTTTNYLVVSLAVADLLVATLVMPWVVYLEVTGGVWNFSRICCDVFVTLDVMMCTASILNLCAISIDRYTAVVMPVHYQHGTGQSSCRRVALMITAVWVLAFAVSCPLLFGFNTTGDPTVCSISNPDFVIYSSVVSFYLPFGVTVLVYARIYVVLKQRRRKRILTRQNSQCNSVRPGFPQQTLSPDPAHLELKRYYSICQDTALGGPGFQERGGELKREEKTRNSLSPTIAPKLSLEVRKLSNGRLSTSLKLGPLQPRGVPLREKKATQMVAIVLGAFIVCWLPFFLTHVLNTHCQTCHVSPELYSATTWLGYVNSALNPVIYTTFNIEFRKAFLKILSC
UniProt P14416, whole entry: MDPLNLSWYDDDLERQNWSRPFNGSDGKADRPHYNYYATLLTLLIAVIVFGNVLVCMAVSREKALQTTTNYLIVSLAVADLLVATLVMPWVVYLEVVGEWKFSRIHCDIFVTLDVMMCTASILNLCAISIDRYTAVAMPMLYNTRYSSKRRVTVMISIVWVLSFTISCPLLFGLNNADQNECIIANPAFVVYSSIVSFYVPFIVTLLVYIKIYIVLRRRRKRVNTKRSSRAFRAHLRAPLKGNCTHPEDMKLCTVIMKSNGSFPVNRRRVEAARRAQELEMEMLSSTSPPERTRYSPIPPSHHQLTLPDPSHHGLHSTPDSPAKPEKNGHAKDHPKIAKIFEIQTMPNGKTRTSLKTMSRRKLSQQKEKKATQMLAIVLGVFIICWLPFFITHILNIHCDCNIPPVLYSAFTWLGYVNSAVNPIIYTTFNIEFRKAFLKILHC

Columns and labels:
D(3) dopamine receptor = D(3) dopamine receptor (Homo sapiens, UniProt P35462); test: Displacement of [3H]-N-methylspiperone from dopamine D3 receptor expressed in human MES-23.5
D(2) dopamine receptor = D(2) dopamine receptor (Homo sapiens, UniProt P14416); test: Displacement of [3H]-N-methylspiperone from dopamine D2 receptor expressed in human MES-23.5 cells

| Compound | Ki (D(3) dopamine receptor) [nM] | Ki (D(2) dopamine receptor) [nM] |
| --- | --- | --- |
| O=C(CCCCN1[C@@H]2CC[C@H]1CC(O)(c1ccc(Cl)cc1)C2)c1nc2ccccc2s1 (stereo partly drawn) | 16 |  |
| OC1(c2ccc(Cl)cc2)C[C@H]2CC[C@@H](C1)N2CCCCc1nc2ccccc2s1 (stereo partly drawn) | 13 | 44 |
